Laboratory results as given in patent US11053219B2 (dated 2021).

Protein sequences, listed by entry. Tags and fused reporters are not part of them. Residues count along the entry.
UniProt P29597, 589-875: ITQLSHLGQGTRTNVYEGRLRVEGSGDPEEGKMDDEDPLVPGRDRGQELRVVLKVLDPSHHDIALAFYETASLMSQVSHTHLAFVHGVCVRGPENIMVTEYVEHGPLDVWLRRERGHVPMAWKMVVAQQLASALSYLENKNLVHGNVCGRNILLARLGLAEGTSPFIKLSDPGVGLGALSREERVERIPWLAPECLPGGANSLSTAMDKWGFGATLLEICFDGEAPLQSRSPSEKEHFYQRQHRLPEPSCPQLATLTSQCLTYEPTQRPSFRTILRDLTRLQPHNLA

Target: TYK2 (JH2 domain) (Homo sapiens (Human), UniProt P29597)
Test: TYK2 JH2 domain binding assay (DiscoverX KINOMEscan)
Details: read-out: TYK2 (JH2 domain) binding Kd
[1] = KINOMEscan, 11-point 3-fold dilution, duplicate

With `COc1c(Nc2cc(NC(=O)C3CC3)ncc2C(=O)C2CC2)cccc1-c1ncn(C)n1` [Example 27] as the molecule, how does the Kd read?
Its Kd is < 1 nM.

How did the Kd [1] turn out when `[2H]C([2H])([2H])Oc1c(Nc2cc(NC(=O)C3CC3)ncc2C(=O)C2CC2)cccc1-c1ncn(C)n1` [Example 34] was run?
Its Kd is ≤ 1 nM.

How did the Kd [1] turn out when `[2H]C([2H])([2H])n1cnc(-c2cccc(Nc3cc(NC(=O)C4CC4)ncc3C(=O)C3CC3)c2OC)n1` [Example 54] was run?
Its Kd is ≤ 1 nM.

How did the Kd [1] turn out when `[2H]C([2H])([2H])Oc1c(Nc2cc(NC(=O)C3CC3)ncc2C(=O)C2CC2)cccc1-c1ncn(C([2H])([2H])[2H])n1` [Example 127] was run?
The Kd was ≤ 1 nM.

With `COc1c(-c2ncn(C)n2)ccnc1Nc1cc(NC(=O)C2CC2)ncc1C(=O)C1CC1` [Example 166] as the molecule, how does the Kd [1] read?
The Kd was ≤ 1 nM.

Where two headings read alike, the source gives them in different places.
